In ChEMBL document CHEMBL5029145, “Discovery of AZD8154, a Dual PI3Kγδ Inhibitor for the Treatment of Asthma” (J Med Chem, 2021):

How the values were obtained:
[1] = molecular target: T1, Phosphatidylinositol 4,5-bisphosphate 3-kinase catalytic subunit delta isoform (Homo sapiens, UniProt O00329); assay: Inhibition of recombinant human PI3Kdelta assessed as reduction in ADP production using Dic8-PIP2 as substrate pre-treated for 15 mins followed by substrate addition measured after 60 mins by ADP-glo assay
T1 sequence (O00329 whole entry): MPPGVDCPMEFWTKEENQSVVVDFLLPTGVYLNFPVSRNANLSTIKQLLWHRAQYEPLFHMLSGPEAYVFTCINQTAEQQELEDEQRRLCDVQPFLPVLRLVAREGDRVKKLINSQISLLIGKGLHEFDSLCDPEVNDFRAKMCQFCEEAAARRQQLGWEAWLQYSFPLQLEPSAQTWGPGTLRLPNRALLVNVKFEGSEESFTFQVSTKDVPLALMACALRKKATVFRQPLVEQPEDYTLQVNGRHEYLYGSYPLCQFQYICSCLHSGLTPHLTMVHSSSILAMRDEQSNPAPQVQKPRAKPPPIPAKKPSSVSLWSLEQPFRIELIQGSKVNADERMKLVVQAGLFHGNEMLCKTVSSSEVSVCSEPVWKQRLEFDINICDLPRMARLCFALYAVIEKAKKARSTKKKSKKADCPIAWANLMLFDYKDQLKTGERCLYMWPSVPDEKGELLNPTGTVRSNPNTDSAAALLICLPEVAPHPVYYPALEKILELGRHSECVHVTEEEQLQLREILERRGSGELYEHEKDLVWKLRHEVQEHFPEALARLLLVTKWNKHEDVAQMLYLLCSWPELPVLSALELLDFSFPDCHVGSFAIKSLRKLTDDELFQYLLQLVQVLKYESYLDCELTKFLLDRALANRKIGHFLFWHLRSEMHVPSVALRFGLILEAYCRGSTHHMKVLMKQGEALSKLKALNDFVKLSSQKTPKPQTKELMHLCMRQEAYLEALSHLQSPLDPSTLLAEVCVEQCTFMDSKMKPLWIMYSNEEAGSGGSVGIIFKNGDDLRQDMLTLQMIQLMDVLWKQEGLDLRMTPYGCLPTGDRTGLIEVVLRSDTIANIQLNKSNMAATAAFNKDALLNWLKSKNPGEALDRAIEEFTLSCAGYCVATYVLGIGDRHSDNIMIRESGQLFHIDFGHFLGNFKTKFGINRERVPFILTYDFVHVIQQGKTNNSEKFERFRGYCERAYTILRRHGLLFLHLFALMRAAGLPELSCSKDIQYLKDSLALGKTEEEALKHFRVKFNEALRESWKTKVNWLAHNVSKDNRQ

[2] = molecular target: T1, Phosphatidylinositol 4,5-bisphosphate 3-kinase catalytic subunit delta isoform; assay: Inhibition of PI3Kdelta in anti-IgM-stimulated human JeKo-1 cells assessed as inhibition of AKT phosphorylation at Ser473 residue incubated for 60 mins by TR-FRET assay

SMILES	IC50 [1]	IC50 [2]
Cc1nc(Nc2cccc(N3CCOCC3=O)n2)sc1-c1cc2c(c(S(C)(=O)=O)c1)C(=O)N([C@@H](C)C1CC1)C2	1 nM	7.94 nM
Cc1nc(Nc2cccc(N3CCOCC3=O)n2)sc1-c1cc2c(c(S(=O)(=O)NC3COC3)c1)C(=O)N([C@@H](C)C1CC1)C2	1 nM	3.98 nM
